Apparent affinities of Ab-14 variants for a coronavirus HR2 peptide

From the AlphaSeq antibody data of Li et al. 2023 (doi:10.1038/s41467-023-39022-2), copy in the FLAb collection.

Target peptide (SARS-CoV-2 spike, HR2 region): PDVDLGDISGINAS

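The starting antibody came from a phage panning campaign against this peptide. Designed CDR sequences, proposed from the first random library and measured here. Their group label is 14H_En_HC (En: ensemble of fine-tuned language models; HC: hill climbing; a sequence that several methods proposed may carry one label only). AlphaSeq pools MATa yeast showing the antibodies with MATalpha yeast showing the peptide. Mating (16 h, 30 °C) was followed by selection of diploids and sequencing of their barcodes. A regression on co-assayed BCL2-family reference pairs converts the normalised counts of each replicate to an apparent Kd. Each pool was mated in six replicate cultures.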

Parent: Ab-14, a human scFv built as VH, a (GGGGS)3 linker, VL. Only the CDRs of the heavy chain vary.
VH: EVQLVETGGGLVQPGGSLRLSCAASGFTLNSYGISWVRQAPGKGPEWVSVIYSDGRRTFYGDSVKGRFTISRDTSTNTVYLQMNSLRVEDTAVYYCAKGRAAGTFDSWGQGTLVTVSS
VL: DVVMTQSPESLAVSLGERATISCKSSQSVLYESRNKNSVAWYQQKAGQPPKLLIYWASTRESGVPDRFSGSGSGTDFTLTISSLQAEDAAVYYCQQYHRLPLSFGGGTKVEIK

Each variant is given by its three heavy chain CDRs, as the data file delimits them; those of the parent are GFTLNSYGIS, VIYSDGRRTFYGDSVK, GRAAGTFDS.
Scale: log10 of Kd in nM, estimated from mating counts; low values are strong binders.
The mean shown is taken over the replicates in which the pair was detected.
"ND" marks a missing value. The strain was present, yet no cells mated with the target were sequenced in that replicate, which points to weak or no binding.
The parent sequence was in this pool as ten entries: three were never detected, three once, and four in most replicates, with averages from 0.34 to 2.37.
Three control strains display no target. For all heavy chain designs, 1% of the pairings with them gave a signal, with a median of 2.08 and one signal in twenty below 0.84, so weak values seen in few replicates may be background. The control count says in how many pairings with the empty strains this scFv gave a signal, with their mean in brackets.
In the paper, a design with two or fewer of six values counts as a poor binder.
A sequence measured in both rounds can read differently, since the two assays cover different ranges.

| # | CDR-H1 | CDR-H2 | CDR-H3 | replicates, log10 nM | mean, log10 nM | signal with controls |
|---|---|---|---|---|---|---|
| 1 | GFDLNEYGIS | VIYADGLRTFYADSVK | GKNAGTIDV | ND / 2.09 / ND / ND / ND / 1.07 | 1.58 | 0 of 18 |
| 2 | GFDLESYGIS | VIYADGRRTFYADKVK | GKNAGTFDI | -0.81 / -0.97 / -0.42 / -1.35 / -0.69 / -0.43 | -0.78 | 0 of 18 |
| 3 | GFDLNEYGIS | VIYADGRRTAYIDSVK | GENAGTFDK | -0.56 / -0.50 / -0.95 / -1.02 / -0.76 / -0.83 | -0.77 | 0 of 18 |
| 4 | GFDLNEYGIS | VIYADGKRTFYADSVK | GNLAGTFDQ | -0.24 / -0.44 / -0.67 / -0.59 / -0.56 / -0.41 | -0.48 | 1 of 18 (2.59) |
| 5 | GFTLNSYGIS | VIYSDGRRTFYSDSVK | GRAGGTFDS | ND / ND / 1.37 / 2.27 / ND / 2.41 | 2.01 | 0 of 18 |
| 6 | GFDLNEYGIS | VIYADGRRTAYADSVK | GQVAGTFDK | -0.46 / -0.69 / -0.85 / -0.72 / -0.62 / -0.46 | -0.63 | 0 of 18 |
| 7 | GFDLNEYGIS | VIYADGRRTAYTDSVK | GHTAGTFFL | 0.15 / 0.02 / -0.11 / -0.38 / -0.05 / 0.05 | -0.05 | 2 of 18 (1.85) |
| 8 | GFDLNEYGIS | VIYADGSRTFYSDSVK | GNQAGTFDF | -0.15 / 0.25 / 0.87 / 0.55 / 0.92 / 1.07 | 0.59 | 0 of 18 |
| 9 | GFDLNEYGIS | VIYADGVRTFYVDSVK | GEVAGTFDV | -0.91 / -0.76 / 0.24 / -0.81 / -0.32 / -0.55 | -0.52 | 0 of 18 |
| 10 | GFDLNEYGIS | VIYADGRRTFYSDNVK | GQNAGTFDS | -0.26 / -0.36 / -0.33 / -0.48 / -0.48 / -0.06 | -0.33 | 1 of 18 (2.78) |
| 11 | GFDLNEYGIS | VIYADGRRTFYADNVK | GEVAGTFDS | 0.22 / -0.12 / -0.45 / -0.19 / -0.15 / -0.08 | -0.13 | 1 of 18 (1.66) |
| 12 | GFDLNEYGIS | VIYADGVRTFYTDNVK | GQNAGTFDS | -0.57 / -0.56 / -0.73 / -1.11 / -0.79 / -0.76 | -0.75 | 1 of 18 (1.75) |
| 13 | GFDLNEYGIS | VIYADGMRTAYLDSVK | GQLAGTFDT | -0.04 / -0.03 / -0.13 / -0.06 / -0.09 / -0.01 | -0.06 | 2 of 18 (2.79) |
| 14 | GFDLNEYGIS | VIYADGRRTFYTDNVK | GEVAGTFDL | ND / ND / ND / ND / ND / ND | ND | 0 of 18 |
| 15 | GFDLDEYGIS | VIYADGMRTFYSDSVK | GETAGTFDV | -0.48 / 0.04 / -0.67 / -1.31 / -1.14 / -0.61 | -0.70 | 0 of 18 |
| 16 | GFDLNEYGIS | VIYADGRRTFYSDSVK | GQTAGTFDM | -0.47 / -0.61 / -0.58 / -0.65 / -0.60 / -0.43 | -0.56 | 1 of 18 (2.87) |
| 17 | GFDLNEYGIS | VIYADGKRTFYSDSVK | GNLGGTFDV | 0.66 / 0.02 / 0.00 / 0.15 / 0.15 / 0.52 | 0.25 | 0 of 18 |
| 18 | GFDLNEYGIS | VIYADGKRTAYADSVK | GQVAGTFDS | -0.59 / -0.82 / -0.31 / -0.49 / -0.46 / -0.29 | -0.49 | 0 of 18 |
| 19 | GFDLNEYGIS | VIYADGRRTFYADNVK | GNVAGTFDE | -0.67 / -0.48 / -0.47 / -0.64 / -0.69 / -0.59 | -0.59 | 1 of 18 (1.64) |
| 20 | GFDLNEYGIS | VIYADGVRTFYTDSVK | GETAGTFDS | -0.25 / -0.23 / -0.59 / -0.68 / -0.68 / -0.55 | -0.50 | 0 of 18 |
| 21 | GFDLDEYGIS | VIYADGRRTFYSDSVK | GSEAGTFDV | -0.41 / -0.56 / -0.83 / -0.69 / -0.82 / -0.51 | -0.64 | 0 of 18 |
| 22 | GFDLNEYGIS | VIYADGRRTFYADSVK | GNNAGTFDA | 0.35 / 0.37 / 0.26 / -0.30 / 0.29 / -0.31 | 0.11 | 0 of 18 |
| 23 | GFDLNEYGIS | VIYADGRRTFYADSVK | GGVAGTFIQ | -0.02 / -0.27 / -0.33 / -0.57 / -0.80 / 0.27 | -0.29 | 0 of 18 |
| 24 | GFNLDEYGIS | VIYADGKRTFYADSVK | GEHAGTFDT | 0.27 / 0.26 / 0.01 / 0.82 / 0.28 / 0.57 | 0.37 | 0 of 18 |
| 25 | GFDLNEYGIS | VIYADGRRTFYADSVK | GNTAGTFDE | 0.24 / 0.55 / 0.22 / -0.29 / -0.46 / 0.14 | 0.07 | 0 of 18 |
| 26 | GFDLESYGIS | VIYADGSRTAYADSVK | GNVAGTFVS | 0.06 / -0.03 / -0.10 / -0.24 / 0.00 / 0.01 | -0.05 | 0 of 18 |
| 27 | GFNLNEYGIS | VIYADGRRTFYADSVK | GEIAGTFDT | -0.30 / -0.61 / -0.46 / -0.89 / -0.35 / -0.42 | -0.51 | 0 of 18 |
| 28 | GFDLNEYGIS | VIYADGKRTAYSDSVK | GEVAGTFVS | -0.16 / -0.51 / -0.33 / -0.43 / -0.39 / -0.13 | -0.32 | 1 of 18 (2.13) |
| 29 | GFDLNEYGIS | VIYADGSRTFYADSVK | GEIAGTFDQ | ND / 1.27 / ND / ND / 0.90 / ND | 1.09 | 0 of 18 |
| 30 | GFDLNEYGIS | VIYADGRRTFYSDSVK | GSNGGTFDM | 0.26 / 0.38 / -0.24 / 0.16 / -0.38 / 0.17 | 0.06 | 0 of 18 |
| 31 | GFDLNEYGIS | VIYADGRRTFYADSVK | GNTAGTFNN | -0.03 / -0.25 / -0.26 / -0.01 / -0.13 / 0.35 | -0.06 | 0 of 18 |
| 32 | GFDLNEYGIS | VIYADGRRTSYIDSVK | GNVAGTFDQ | -0.48 / -0.85 / -0.22 / -0.60 / 0.12 / -1.07 | -0.52 | 0 of 18 |
| 33 | GFNLNEYGIS | VIYADGRRTFYADSVK | GQNAGTFDM | -0.13 / -0.38 / -0.57 / -0.77 / -0.50 / -0.61 | -0.49 | 0 of 18 |
| 34 | GFNLNEYGIS | VIYADGRRTFYSDSVK | GTNGGTFDV | 0.07 / -0.17 / -0.22 / -0.29 / -0.11 / 0.11 | -0.10 | 0 of 18 |
| 35 | GFDLNEYGIS | VIYADGQRTFYADSVK | GQAAGTFDM | -0.41 / -0.60 / -0.52 / -0.60 / -0.59 / -0.44 | -0.53 | 0 of 18 |
| 36 | GFDLNEYGIS | VIYADGQRTAYADSVK | GQLAGTFDT | -0.09 / 0.48 / 0.11 / -0.24 / -0.22 / 0.03 | 0.01 | 0 of 18 |
| 37 | GFDLNEYGIS | VIYADGMRTFYADSVK | GQNAGTFDF | -0.39 / -0.19 / -0.32 / -0.60 / -0.56 / 0.02 | -0.34 | 0 of 18 |
| 38 | GFDLNEYGIS | VIYADGVRTFYTDSVK | GTFAGTFDV | -0.60 / -0.49 / -0.53 / -0.77 / -0.66 / -0.81 | -0.64 | 0 of 18 |
| 39 | GFDLNEYGIS | VIYADGRRTAYADSVK | GEVAGTFVQ | 0.11 / -0.01 / 0.26 / -0.12 / 0.03 / 0.28 | 0.09 | 0 of 18 |
| 40 | GFDLNEYGIS | VIYADGMRTFYTDSVK | GQLAGTFDS | -0.51 / -0.35 / -0.45 / -0.72 / -0.73 / -0.46 | -0.54 | 0 of 18 |
| 41 | GFNLDEYGIS | VIYADGRRTFYADSVK | GEVAGTFDI | -0.19 / -0.26 / -0.38 / -0.48 / -0.23 / -0.83 | -0.39 | 1 of 18 (1.86) |
| 42 | GFNLNEYGIS | VIYADGRRTFYADSVK | GGLAGTFDV | -0.47 / -0.36 / -0.40 / -0.52 / -0.22 / -0.66 | -0.44 | 0 of 18 |
| 43 | GFDLNEYGIS | VIYADGRRTAYSDSVK | GEIAGTFIQ | -0.21 / -0.10 / -0.22 / -0.49 / -0.19 / -0.07 | -0.21 | 0 of 18 |
| 44 | GFDLEDYGIS | VIYADGRRTFYADSVK | GEVAGTFDL | -0.36 / -0.11 / -0.50 / -0.68 / -0.26 / -0.17 | -0.35 | 0 of 18 |

A selection of 3 entries from above:

CDR-H1,CDR-H2,CDR-H3,"replicates, log10 nM","mean, log10 nM",signal with controls
GFDLNEYGIS,VIYADGLRTFYADSVK,GKNAGTIDV,ND / 2.09 / ND / ND / ND / 1.07,1.58,0 of 18
GFDLNEYGIS,VIYADGVRTFYTDSVK,GTFAGTFDV,-0.60 / -0.49 / -0.53 / -0.77 / -0.66 / -0.81,-0.64,0 of 18
GFDLNEYGIS,VIYADGMRTFYADSVK,GQNAGTFDF,-0.39 / -0.19 / -0.32 / -0.60 / -0.56 / 0.02,-0.34,0 of 18